Assay outcomes deposited in PubChem by Broad Institute.
S100A4 MyoIIA = inhibitors of human S100A4 binding to myosin IIA peptide; 0.14% of 360,000 active; P26447; inhibition, % at 10.7 µM; S100A4/TAMRA-MyoIIA peptide fluorescence polarization; AID 652163;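 active means mean inhibition of at least 70% across replicates, with every replicate also reaching that level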
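Material: human S100A4 monomer with TAMRA-labelled myosin IIA peptide; buffer or medium: HEPES pH 7.2 with CaCl2, KCl, NaCl, DTT, Triton; compound dosing: one concentration per compound; schedule: 5 min incubation before reading; benchmarks: neutral control DMSO, positive control TFP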
SIRT5 block = blocks human SIRT5 desuccinylation of peptide; inhibition, % at 15 µM; Q9NXA8; 1.1% of 330,000 active; Purified SirT5, succinyl-peptide AMC, trypsin-coupled fluorescence; in the data active means inhibition above about 15%
ERp5 inh = blocks human ERp5 reductase activity on insulin; AID 651711; Q15084; inhibition, % at 9.99 µM; ERp5 insulin aggregation, absorbance 650 nm, 90 min; 0.05% of 350,000 active;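 active means mean replicate inhibition above about 25%, with every replicate also reaching it, limit read from the data, passing the limit was not always enough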
Yeast UUG start = modulators of yeast start codon fidelity, primary screen, whole organism, S. cerevisiae, single point, plate reader | AID 602363, 2012 | actives 0.13% (n = 350,000) | activity score, % at 18.7 µM | S. cerevisiae UUG-firefly luciferase reporter, luminescence/redox ratio;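 active means replicate mean at a twofold rise or more, about +100% in these data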;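 further: firefly luciferase made from a UUG start codon reports start codon fidelity; reporter light over untreated wells divided by growth signal over untreated wells; some hits fall short of that in this replicate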
FGF22 binding = binders of recombinant human FGF22 by thermal shift. Q9HCT0. SYPRO orange fluorescence; percent of sucrose octasulfate shift, DMSO zero. activity (Tm shift, normalised), % at 9.99 µM. AID 651658. 1.5% of 340,000 active;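 active means mean Tm shift, scaled 0 neutral to 100 positive control, at about 1.3% or above, every replicate too, limit read from the data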
PDI turbidity = inhibitors of human protein disulfide isomerase; 0.052% of 350,000 active; P07237; PDI insulin aggregation turbidity, A650, 90 min; inhibition, % at 10 µM;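 active means mean inhibition across replicates of 30% or more, whatever share of single replicates reach that level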
* hit, by the source's call; · = no result. This is a sample that favours compounds with a hit; in the whole collection about 2.2% have one here.

nr	SMILES	S100A4 MyoIIA	SIRT5 block	ERp5 inh
1	COc1ccc(N=C2NC(=O)/C(=C/C=C/c3ccccc3)S2)cc1	-1	0	3
2	O=C(C[C@@H]1C=C[C@@H](NC(=O)CN2CCOCC2)[C@H](CO)O1)NC1CCC1	6	-1	-1
3	Cc1ccc(S(=O)(=O)N(C)C[C@H]2Oc3ccc(NC(=O)Nc4cccc5ccccc45)cc3CC(=O)N([C@@H](C)CO)C[C@H]2C)cc1	-18	19*	0
4	CNC[C@@H]1Oc2ccc(NC(=O)Nc3ccc(F)cc3)cc2CC(=O)N([C@@H](C)CO)C[C@H]1C	-36	-6	3
5	C[C@H](CO)N1C[C@H](C)[C@@H](CN(C)Cc2ccc(Cl)c(Cl)c2)Oc2ccc(NC(=O)Nc3cccc4ccccc34)cc2CC1=O	-9	13	3
6	C[C@H]1CN([C@@H](C)CO)C(=O)Cc2cc(NC(=O)Nc3cccc4ccccc34)ccc2O[C@H]1CN(C)C(=O)Nc1cccc2ccccc12	-8	11	26*
7	CNC[C@H]1Oc2ccc(NC(=O)Nc3ccc(F)cc3)cc2CC(=O)N([C@H](C)CO)C[C@@H]1C	-28	36*	1
8	C[C@H]1CN([C@@H](C)CO)C(=O)Cc2cc(NC(=O)Nc3cccc4ccccc34)ccc2O[C@@H]1CN(C)Cc1ccc(Cl)c(Cl)c1	-7	16*	-1
9	CN(C)C(=O)C[C@@H]1C[C@@H]2c3cc(NC(=O)Nc4ccc(C(F)(F)F)cc4)ccc3O[C@@H]2[C@H](CO)O1	6	-4	-4
10	O=C(NC1Cc2ccccc2C1)[C@H]1[C@H](CO)[C@H]2Cn3c(ccc(-c4ccccc4F)c3=O)[C@@H]1N2	-1	-8	-1
11	Fc1cccc(CN2C[C@@H]3N[C@H](C2)C3c2ccc(/C=C/c3ccccc3)cc2)c1 (stereo partly specified)	·	·	·
12	CC(C)NC(=O)Nc1ccc2c(c1)CC(=O)N([C@@H](C)CO)C[C@@H](C)[C@@H](CN(C)C(=O)NC1CCCCC1)O2	-1	18*	0

nr	Yeast UUG start	FGF22 binding	PDI turbidity
1	-14	0	14
2	-5	0	·
3	-3	0	·
4	1	0	·
5	-7	0	·
6	-11	0	·
7	8	0	·
8	-5	0	·
9	1	0	·
10	·	0	·
11	·	0	·
12	·	·	·

Two compounds drawn at random from the list so far:
nr	SMILES	S100A4 MyoIIA	SIRT5 block	ERp5 inh
9	CN(C)C(=O)C[C@@H]1C[C@@H]2c3cc(NC(=O)Nc4ccc(C(F)(F)F)cc4)ccc3O[C@@H]2[C@H](CO)O1	6	-4	-4
8	C[C@H]1CN([C@@H](C)CO)C(=O)Cc2cc(NC(=O)Nc3cccc4ccccc34)ccc2O[C@@H]1CN(C)Cc1ccc(Cl)c(Cl)c1	-7	16*	-1

nr	Yeast UUG start	FGF22 binding	PDI turbidity
9	1	0	·
8	-5	0	·

(list continues)
nr	SMILES	S100A4 MyoIIA	SIRT5 block	ERp5 inh
13	CC(C)NC(=O)Nc1ccc2c(c1)CC(=O)N([C@H](C)CO)C[C@H](C)[C@H](CN(C)C(=O)NC1CCCCC1)O2	9	1	-1
14	C[C@@H]1CN([C@H](C)CO)C(=O)c2cc(NC(=O)Nc3cccc4ccccc34)ccc2O[C@@H]1CN(C)C(=O)Nc1cccc2ccccc12	-2	7	33*
15	C[C@@H]1CN([C@@H](C)CO)C(=O)Cc2cc(NC(=O)Nc3ccccc3)ccc2O[C@H]1CN(C)S(=O)(=O)c1ccc(F)cc1	-5	18*	4
16	C[C@@H]1CN([C@@H](C)CO)C(=O)Cc2cc(NC(=O)C3CC3)ccc2O[C@@H]1CN(C)Cc1ccc2c(c1)OCO2	4	3	-4
17	C[C@H](CO)N1C[C@H](C)[C@@H](CN(C)Cc2ccncc2)Oc2cc(C#CC(C)(C)O)ccc2S1(=O)=O	21	-5	0
18	CC(C)Cc1nc2ccccc2n1CCc1ccccc1	2	1	1
19	CCc1nc2ccccc2n1CCc1ccccc1	-12	-5	8
20	COC(=O)Cc1nnn2c1[C@H](C)[C@@H](OC)c1ccc(C(F)(F)F)cc1-2	1	·	3
21	COC(=O)Cc1nnn2c1[C@H](C)[C@@H](OC)c1cccc(Cl)c1-2	-2	·	-3
22	C[C@@H]1CCCCO[C@@H](CN(C)C(=O)Nc2ccc3c(c2)OCO3)[C@H](C)CN([C@H](C)CO)C(=O)c2cc(NC(=O)c3ccncc3)ccc2O1	4	-2	0
23	C[C@H](CO)N1C[C@H](C)[C@H](CN(C)Cc2ccccc2)Oc2ccc(NC(=O)CCCCCC(=O)Nc3ccccc3N)cc2CC1=O	-1	0	-6
24	C[C@H](CO)N1C[C@H](C)[C@H](CN(C)Cc2ccc(Oc3ccccc3)cc2)Oc2ccc(NC(=O)CCCCCC(=O)Nc3ccccc3N)cc2CC1=O	4	30*	-3

nr	Yeast UUG start	FGF22 binding	PDI turbidity
13	·	-1	·
14	11	0	·
15	1	0	·
16	-1	0	·
17	-13	0	·
18	·	43*	13
19	·	0	1
20	·	0	·
21	·	82*	·
22	7	0	·
23	7	0	·
24	3	0	·

In a second layout: entries from further up
item	molecule	S100A4 MyoIIA	SIRT5 block	ERp5 inh	Yeast UUG start	FGF22 binding	PDI turbidity
15	C[C@@H]1CN([C@@H](C)CO)C(=O)Cc2cc(NC(=O)Nc3ccccc3)ccc2O[C@H]1CN(C)S(=O)(=O)c1ccc(F)cc1	-5	18*	4	1	0	·
16	C[C@@H]1CN([C@@H](C)CO)C(=O)Cc2cc(NC(=O)C3CC3)ccc2O[C@@H]1CN(C)Cc1ccc2c(c1)OCO2	4	3	-4	-1	0	·

Following part.
nr	SMILES	S100A4 MyoIIA	SIRT5 block	ERp5 inh
25	C[C@H]1CN([C@@H](C)CO)C(=O)Cc2cc(NC(=O)CCCCCC(=O)Nc3ccccc3N)ccc2O[C@H]1CN(C)Cc1ccc(Oc2ccccc2)cc1	7	20*	2
26	N#CC1=C(N)N2C(=C(C#N)C1c1cccc(Br)c1)Nc1ccccc12 (stereo unspecified)	13	0	1
27	COc1ccc(C(Nc2ccccn2)c2c(NC(=O)c3ccco3)sc(C)c2C)cc1 (stereo unspecified)	1	-2	-4
28	Cc1cccn2c(=O)c3cc(C(=O)NCC4CCCO4)c(=N)n(C4CCCC4)c3nc12 (stereo unspecified)	-2	81*	0
29	CC(C)NC(=O)N(C)C[C@H]1OCCCC[C@H](C)Oc2ccc(NS(=O)(=O)c3ccc(Cl)cc3)cc2C(=O)N([C@@H](C)CO)C[C@@H]1C	-18	1	5
30	C=CC1CN(S(=O)(=O)c2ccc(Br)cc2)C(=O)N1c1ccc(Br)cc1 (stereo unspecified)	-22	0	1
31	C[C@H](CO)N1C[C@H](C)[C@H](CN(C)C(=O)Nc2ccccc2)Oc2ncc(C#Cc3ccc(C(F)(F)F)cc3)cc2C1=O	-11	9	2
32	O=C(c1ccc(N2C(=O)CCC2=O)cc1)N1CCCSC1=Nc1ccccc1	84*	·	-8
33	CCc1noc(C)c1C(=O)N1CCCSC1=Nc1ccccc1	-7	-6	-2
34	c1ccc(-c2noc(CC3CCCCC3)n2)cc1	14	1	3
35	COc1ccc(/C=N\NC(=O)c2ccccc2[N+](=O)[O-])cc1COc1c(F)c(F)c(F)c(F)c1F	9	-1	0
36	CO[C@@H]1CN(C)C(=O)c2cc(NC(=O)Nc3ccccc3F)ccc2OC[C@H](C)N(CC2CC2)C[C@H]1C	-4	1	2
37	Cc1nn(C)c2ncc(C(=O)c3cc(F)ccc3O)cc12	·	·	·
38	Cn1c(=O)[nH]c(=O)c2cc(C(=O)c3cc(F)ccc3O)cnc21	3	0	-2
39	O=C(C[C@@H]1CC[C@@H]2[C@H](COC[C@H](O)CN2Cc2cccc(Cl)c2)O1)NCC1CCCCC1	12	5	-4

nr	Yeast UUG start	FGF22 binding	PDI turbidity
25	4	0	·
26	·	43*	-2
27	·	44*	-4
28	1	42	-2
29	-2	0	·
30	-14	0	·
31	-8	0	·
32	-10	0	17
33	-16	0	-4
34	4	43*	-3
35	-12	4.1*	1
36	18	0	·
37	·	·	2
38	·	43*	-5
39	-1	0	·
